Test results from patent US9428783B2, “DNA encoding dipeptide-synthesizing enzyme (variants), bacterium belonging to the genus Escherichia, and methods for producing dipeptides using thereof” (Ajinomoto Co., Inc., priority 2012, dated 2016).

Columns and labels:
[1] = test system: crude proteins preparation of E. coli BW25113 (WT); assay: Specific aspartic peptide-hydrolyzing (DP3-hydrolyzing) activity in vitro; type: biochemical; conditions: 5 mM DP3, 37° C.
Protocol: The reaction mixture contained:
24 μg of crude proteins preparation, […]

[2] = test system: E. coli BW25113; assay: DP3 toxicity, growth on M9-salts agar; conditions: WT
[3] = test system: E. coli 5Δ strain; assay: DP3 toxicity, growth on M9-salts agar
[4] = test system: crude proteins preparation of E. coli 4Δ strain; assay: Specific aspartic peptide-hydrolyzing (DP3-hydrolyzing) activity in vitro; conditions: 5 mM DP3, 37° C.
[5] = test system: crude proteins preparation of E. coli 5Δ strain; assay: as above; conditions: 5 mM DP3, 37° C.
[6] = test system: crude proteins preparation of E. coli 6Δ strain; assay: as above; conditions: 5 mM DP3, 37° C.
[7] = Preliminary analysis of substrate specificity by TLC; type: biochemical; conditions: 4 μg enzyme, 10 mM each amino acid, 10 mM ATP, pH 8.0, 32° C., 15 hours
Description: The substrate specificity of BBR47_51900 and Staur_4851 was studied in the reaction mixture containing the enzyme and canonical L-amino acids such as L-alanine, L-arginine, L-asparagine, L-aspartic acid, L-cysteine, glycine, L-glutamic acid, L-glutamine, L-histidine, L-isoleucine, L-leucine, L-lysine, L-methionine, L-phenylalanine, L-proline, L-serine, L-threonine, L-tryptophan, L-tyrosine, and L-valine, or salts thereof, of the same or two different kinds. The composition of the reaction mixture of total volume of 50 μL was as follows unless otherwise noted:
Reactions were carried out at 32° C. for 15 hours. 1-2 μL of reaction mixture was subjected to thin layer chromatography (TLC) analysis using as mobile phase the mixture of 2-propanol:acetone:250 mM ammonia:H2O as 100:100:12:28. […] Detection was performed at 540 nm. The new spots on TLC-plates were detected after developing the reaction mixtures, which contained: […]

[8] = HPLC determination of dipeptides synthesized by the enzymes; type: biochemical; conditions: 160 μg enzyme, 10 mM substrates, 10 mM ATP, pH 9.0, 32° C., 15 hours
Protocol: Dipeptides synthesized by BBR47_51900 and Staur_4851 were determined using HPLC analysis of reaction mixtures of total volume of 400 μL, which contained:
Reactions were carried out at 32° C. for 15 hours. Then […] of reaction mixture was filtered through the Amicon Ultra-0.5 mL, 3K Centrifugal Filters (Millipore, #UFC500396) and subjected to HPLC analysis.
The conditions were as follows: • Equipment: HITACHI L-2000 series. • Column: Inertsil ODS-3 4.6×250 mm, […] (GL Sciences Inc.). • Temperature: 40° C. • Buffers:
A (for mixture L-Asp/L-Val and L-Glu/L-Val): 0.1 M KH2PO4 (pH 2.2)+5 mM octanesulfonate, sodium salt: CH3CN as 4:1 (v/v),
B (for mixture L-Asp/L-Phe): 0.1 M KH2PO4 (pH 2.2)+5 mM octanesulfonate, sodium salt: CH3CN as 7:3 (v/v),
C (for mixture L-Asp/L-PheOMe, L-Asp/L-Trp, and L-Val/L-Val): 0.1 M KH2PO4 (pH 2.2)+5 mM octanesulfonate, sodium salt:CH3CN as 3:2 (v/v),
D (for mixture L-Phe/L-Phe): 0.1 M KH2PO4 (pH 2.2)+5 mM octanesulfonate, sodium salt: CH3CN as 1:1 (v/v). • Gradient profile: isocratic. • Flow rate: 1.5 mL/min. • Injection volume: 10 μL. • Detection: UV 210 nm.
Solution of αGlu-Val, γGlu-Val, αAsp-Val (10 mM each) and αAsp-Phe, βAsp-Phe (5 mM each) were prepared for HPLC analysis. The concentration of a dipeptide formed was determined using corresponding calibration curves. Each solution with standard sample was diluted to 50-folds or 100-folds for LC-QTOF/MS/MS analysis (Example 5).

[9] = Enzymatic production of Asp-Phe using ATP regeneration system; type: biochemical; conditions: 0.15 U enzyme, 100 mM L-AspNa, 100 mM L-Phe, 37° C.
Protocol: The product yield of Asp-Phe was studied in the reaction mixture of BBR47_51900 and Staur_4851 containing phosphoenolpyruvate and pyruvate kinase for regeneration of ATP in order to prevent highly concentrated ATP from inhibiting the enzyme reaction. The composition of the reaction mixture of total volume of 1 ml was as follows.
Reactions were carried out at 37° C. for 1-48 hours. 100 μL out of the 1 mL reaction mixture was sampled at each reaction time. Each reaction mixture, into which 10 μL of 1 M EDTA (pH9.0) was added to stop the reaction, was subjected to HPLC analysis. The condition was as described in Example 4. As a result, BBR47_51900 and Staur_4851 could produce Asp-Phe in the ATP regeneration system (Table 9).

[10] = DP3 conc. 2 (mM), M9-salt/Glucose (0.4%, W/V)
[11] = DP3 conc. 2 (mM), M9-salt/Glycerol (0.4%, W/V)
[12] = DP3 conc. 4 (mM), M9-salt/Glucose (0.4%, W/V)
[13] = DP3 conc. 4 (mM), M9-salt/Glycerol (0.4%, W/V)
[14] = DP3 conc. 6 (mM), M9-salt/Glucose (0.4%, W/V)
[15] = DP3 conc. 6 (mM), M9-salt/Glycerol (0.4%, W/V)
[16] = DP3 conc. 10 (mM), M9-salt/Glucose (0.4%, W/V)
[17] = DP3 conc. 10 (mM), M9-salt/Glycerol (0.4%, W/V)
[18] = DP3 conc. 15 (mM), M9-salt/Glucose (0.4%, W/V)
[19] = DP3 conc. 15 (mM), M9-salt/Glycerol (0.4%, W/V)
[20] = DP3 conc. 20 (mM), M9-salt/Glucose (0.4%, W/V)
[21] = DP3 conc. 20 (mM), M9-salt/Glycerol (0.4%, W/V)
[22] = DP3 conc. 30 (mM), M9-salt/Glucose (0.4%, W/V)
[23] = DP3 conc. 30 (mM), M9-salt/Glycerol (0.4%, W/V)
[24] = DP3 conc. 50 (mM), M9-salt/Glucose (0.4%, W/V)
[25] = DP3 conc. 50 (mM), M9-salt/Glycerol (0.4%, W/V)

L-Asp-L-5-Fluorotryptophan [DP3]
specific aspartic peptide-hydrolyzing activity (A) ([1]; Mn^2+): 282.34 nmol/mg/min | specific aspartic peptide-hydrolyzing activity (A) ([1]; Zn^2+): 123.03 nmol/mg/min | specific aspartic peptide-hydrolyzing activity (A) ([1]; no cofactor): 110.48 nmol/mg/min | level of growth (DP3 toxicity) [2, 10]: ++ | level of growth (DP3 toxicity) [2, 11]: ++ | level of growth (DP3 toxicity) [2, 12]: + | level of growth (DP3 toxicity) [2, 13]: + | level of growth (DP3 toxicity) [2, 14]: +− | level of growth (DP3 toxicity) [2, 15]: +− | level of growth (DP3 toxicity) [2, 16]: − | level of growth (DP3 toxicity) [2, 17]: − | level of growth (DP3 toxicity) [2, 18]: − | level of growth (DP3 toxicity) [2, 19]: − | level of growth (DP3 toxicity) [2, 20]: − | level of growth (DP3 toxicity) [2, 21]: − | level of growth (DP3 toxicity) [2, 22]: − | level of growth (DP3 toxicity) [2, 23]: − | level of growth (DP3 toxicity) [2, 24]: − | level of growth (DP3 toxicity) [2, 25]: − | level of growth (DP3 toxicity) [3, 10]: ++ | level of growth (DP3 toxicity) [3, 11]: ++ | level of growth (DP3 toxicity) [3, 12]: ++ | level of growth (DP3 toxicity) [3, 13]: ++ | level of growth (DP3 toxicity) [3, 14]: ++ | level of growth (DP3 toxicity) [3, 15]: ++ | level of growth (DP3 toxicity) [3, 16]: ++ | level of growth (DP3 toxicity) [3, 17]: + | level of growth (DP3 toxicity) [3, 18]: ++ | level of growth (DP3 toxicity) [3, 19]: + | level of growth (DP3 toxicity) [3, 20]: ++ | level of growth (DP3 toxicity) [3, 21]: +− | level of growth (DP3 toxicity) [3, 22]: +− | level of growth (DP3 toxicity) [3, 23]: − | level of growth (DP3 toxicity) [3, 24]: − | level of growth (DP3 toxicity) [3, 25]: − | specific aspartic peptide-hydrolyzing activity (A) ([4]; Mn^2+): 13.26 nmol/mg/min | specific aspartic peptide-hydrolyzing activity (A) ([4]; Zn^2+): 6.38 nmol/mg/min | specific aspartic peptide-hydrolyzing activity (A) ([4]; no cofactor): 6.98 nmol/mg/min | specific aspartic peptide-hydrolyzing activity (A) ([5]; Mn^2+): 14.14 nmol/mg/min | specific aspartic peptide-hydrolyzing activity (A) ([5]; Zn^2+): 5.63 nmol/mg/min | specific aspartic peptide-hydrolyzing activity (A) ([5]; no cofactor): 7.41 nmol/mg/min | specific aspartic peptide-hydrolyzing activity (A) ([6]; Mn^2+): 6.86 nmol/mg/min | specific aspartic peptide-hydrolyzing activity (A) ([6]; Zn^2+): 4.69 nmol/mg/min | specific aspartic peptide-hydrolyzing activity (A) ([6]; no cofactor): 6.07 nmol/mg/min

B1: Staur_4851: L-amino acid α-ligase (argininosuccinate lyase 2-like protein) from Stigmatella aurantiaca DW4/3-1, SEQ ID NO: 4 (protein)
chain: MNQFVFVESNTTGTGRLAVERLLAQGEQVTFITHQPEKYPFLVGNKAPGLKVLKVETNDAAAVEACVDGLVREGKVAALLTFSTFYVPTVAAIAARHGLRYLQPRAAQACHNKHEARALLRAAGLPGPEFHVIASEAEAAQLAQTVRFPCVVKPPAESGSTGVRRVDTPEELLAHFRSLHSRAANERGQSLHGEVLVESFLEGPEFSVETMTLADGTTHVLGVTQKYLSAPPYFVEMGHDFPADLPPERRRALEEAVLAGLAAVGFDFGPAHTEIRFTPAGPVIIEINPRLAGGMIPELVRLSTGVDLLSAMLDQMLGRPVDLTHTRQDVACIRFITSERPGVLARVEGQDEASRLGTVRQVAVDKAAGTRLRPPESATDRLGYVIASGPERGQVLGDAARALSLLRVEQAAPSAPA
modifications: Stigmatella aurantiaca DW4/3-1
L-amino acid pairs giving new spots on TLC-plates (ligation) [7]: L-Asp/L-Phe, or L-Asp/L-Trp, or L-Asp/L-Thr | Dipeptides (mM) Asp-Phe [8]: 2.54 mM | Dipeptides (mM) Asp-PheOMe [8]: 0.02 mM | Dipeptides (mM) Asp-Trp [8]: 1.48 mM | Dipeptides (mM) Asp-Val [8]: 4.4 mM | Dipeptides (mM) Glu-Val [8]: 0.40 mM | Asp-Phe ([9]; 1 hr): 10 mM | Asp-Phe ([9]; 2 hr): 20 mM | Asp-Phe ([9]; 4 hr): 33 mM | Asp-Phe ([9]; 8 hr): 49 mM | Asp-Phe ([9]; 24 hr): 56 mM | Asp-Phe ([9]; 48 hr): 56 mM
